MC4R ag barr: MC4R agonists recruiting beta-arrestin, primary screen, cell-based, luminescence, agonist arm of biased-ligand search | U2OS MC4R beta-arrestin complementation; percent of melanotan II response, DMSO zero | activation, % at 8.9 µM | 360,000 compounds, 0.98% hits | AID 540308, 2011 | Melanocortin receptor 4 (Homo sapiens), P32245;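 active = activation above a per-plate cutoff, the mean activation of sample wells on that plate plus 3 SD, cut at about 8% in these data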
ASAP1 GAP inh: inhibitors of human ASAP1 ArfGAP activity, primary screen, biochemical, fluorescence polarization | Arf-GAP with SH3 domain, ANK repeat and PH domain-containing protein 1 (Homo sapiens), … | ASAP1-stimulated ARF1 GTP hydrolysis, GDP FP detection | inhibition, % at 16.5 µM | 360,000 compounds, 0.19% hits; in the data active = inhibition above about 25%
MC4R antag cAMP: MC4R antagonists of cAMP signaling, primary screen, cell-based, TR-FRET, antagonist arm of biased-ligand search. Melanocortin receptor 4 (Homo sapiens), P32245. MC4R-expressing cells, MTII-stimulated cAMP, LANCE TR-FRET. inhibition, % at 6.5 µM. 360,000 compounds, 0.48% hits. AID 540295, 2011;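 active = inhibition above its plate's cutoff, the mean of tested wells on that plate plus 3 SD, cut at about 29% in these data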
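material = U2OS cells stably expressing human melanocortin 4 receptor (MC4R) | also added = Melanotan II challenge | dosing = single nominal compound dose of 6.5 µM | detection = TR-FRET with Eu-cAMP and labeled anti-cAMP, 671 nm | replication = singlicate | timing = compound 30 min, challenge 1 h, detection 1 h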
UUG fidelity: modulators of yeast start codon fidelity, primary screen, whole organism, S. cerevisiae, single point, plate reader | activity score, % at 18.7 µM | 350,000 tested, 0.13% active | S. cerevisiae UUG-firefly luciferase reporter, luminescence/redox ratio;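 active means replicate mean at a twofold rise or more, about +100% in these data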;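 further: firefly luciferase made from a UUG start codon reports start codon fidelity; reporter light over untreated wells divided by growth signal over untreated wells; some hits fall short of that in this replicate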
ARFGAP1 inhibitor: inhibitors of rat ARFGAP1 GAP activity, primary screen, biochemical, fluorescence polarization, GDP tracer; Arfgap1-stimulated ARF1 GTP hydrolysis, GDP FP detection; 360,000 compounds, 0.26% hits; AID 651572, 2012; inhibition, % at 16.5 µM; ADP-ribosylation factor GTPase-activating protein 1 (Rattus norvegicus), Q62848;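 active = inhibition above a per-plate limit, mean inhibition of low control wells plus 3 SD, cut at about 25% in these data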
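Assay system: Rat Arfgap1 GAP domain (His6, aa 1-136), purified enzyme | Buffer or medium: HEPES 25 mM pH 7.5, NaCl 150 mM, MgCl2, DTT | Schedule: GTP hydrolysis reaction 2 h at 25 °C | Signal: FP of antibody-bound GDP Alexa 633 tracer, ex 620/em 688 nm | Measure: Percent inhibition of Arfgap1-stimulated GTP hydrolysis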
CendR NRP1 mod: modulators of CendR peptide binding to NRP-1, primary screen, biochemical, fluorescence polarization, uHTS. Neuropilin-1 (Homo sapiens), O14786. FAM-RPARPAR peptide binding to NRP-1. inhibition, % at 25 µM. 360,000 compounds, 0.85% hits;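 active = inhibition or corrected inhibition above about 18%, plus a signal ratio from 0.5 to 1.5, limit read from the data, passing the limit was not always enough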
A number is an active result; 0 = inactive; - = not tested or not shown. Hits are enriched below; roughly 2.3% of the tested compounds scored in any of these assays.

Sequences of proteins named here, by UniProt entry; tags and fusion partners are left off. Residues count along the entry.
Melanocortin receptor 4 (Homo sapiens), P32245, UniProt P32245, whole entry, looked up: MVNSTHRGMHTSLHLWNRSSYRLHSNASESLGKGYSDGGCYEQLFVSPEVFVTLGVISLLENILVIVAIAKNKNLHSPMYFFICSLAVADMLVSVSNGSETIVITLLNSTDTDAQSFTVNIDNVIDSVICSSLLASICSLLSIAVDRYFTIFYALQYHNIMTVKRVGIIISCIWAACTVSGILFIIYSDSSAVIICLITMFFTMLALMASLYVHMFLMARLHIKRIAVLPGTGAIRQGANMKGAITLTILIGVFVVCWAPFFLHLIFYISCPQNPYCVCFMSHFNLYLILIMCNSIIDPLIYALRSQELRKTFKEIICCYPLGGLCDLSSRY
ADP-ribosylation factor GTPase-activating protein 1 (Rattus norvegicus), Q62848, UniProt Q62848, whole entry, looked up: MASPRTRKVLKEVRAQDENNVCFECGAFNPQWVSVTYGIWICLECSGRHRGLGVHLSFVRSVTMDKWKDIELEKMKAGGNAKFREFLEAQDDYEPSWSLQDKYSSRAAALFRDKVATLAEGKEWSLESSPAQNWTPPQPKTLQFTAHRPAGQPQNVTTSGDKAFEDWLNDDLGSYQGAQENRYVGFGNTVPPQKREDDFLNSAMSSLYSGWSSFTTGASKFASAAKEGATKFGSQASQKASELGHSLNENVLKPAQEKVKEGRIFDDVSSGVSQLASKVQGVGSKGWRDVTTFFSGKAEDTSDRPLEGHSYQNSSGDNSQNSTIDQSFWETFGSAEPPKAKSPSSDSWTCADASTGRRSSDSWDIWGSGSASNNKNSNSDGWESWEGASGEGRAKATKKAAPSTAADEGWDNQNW
ADP-ribosylation factor GTPase-activating protein 1 (Rattus norvegicus), Q62848, UniProt Q62848, 1-136 limits assumed: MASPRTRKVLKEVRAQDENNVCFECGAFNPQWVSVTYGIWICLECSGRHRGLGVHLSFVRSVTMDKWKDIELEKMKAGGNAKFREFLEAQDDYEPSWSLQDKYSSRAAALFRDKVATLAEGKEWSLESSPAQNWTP
Neuropilin-1 (Homo sapiens), O14786, UniProt O14786, whole entry, looked up: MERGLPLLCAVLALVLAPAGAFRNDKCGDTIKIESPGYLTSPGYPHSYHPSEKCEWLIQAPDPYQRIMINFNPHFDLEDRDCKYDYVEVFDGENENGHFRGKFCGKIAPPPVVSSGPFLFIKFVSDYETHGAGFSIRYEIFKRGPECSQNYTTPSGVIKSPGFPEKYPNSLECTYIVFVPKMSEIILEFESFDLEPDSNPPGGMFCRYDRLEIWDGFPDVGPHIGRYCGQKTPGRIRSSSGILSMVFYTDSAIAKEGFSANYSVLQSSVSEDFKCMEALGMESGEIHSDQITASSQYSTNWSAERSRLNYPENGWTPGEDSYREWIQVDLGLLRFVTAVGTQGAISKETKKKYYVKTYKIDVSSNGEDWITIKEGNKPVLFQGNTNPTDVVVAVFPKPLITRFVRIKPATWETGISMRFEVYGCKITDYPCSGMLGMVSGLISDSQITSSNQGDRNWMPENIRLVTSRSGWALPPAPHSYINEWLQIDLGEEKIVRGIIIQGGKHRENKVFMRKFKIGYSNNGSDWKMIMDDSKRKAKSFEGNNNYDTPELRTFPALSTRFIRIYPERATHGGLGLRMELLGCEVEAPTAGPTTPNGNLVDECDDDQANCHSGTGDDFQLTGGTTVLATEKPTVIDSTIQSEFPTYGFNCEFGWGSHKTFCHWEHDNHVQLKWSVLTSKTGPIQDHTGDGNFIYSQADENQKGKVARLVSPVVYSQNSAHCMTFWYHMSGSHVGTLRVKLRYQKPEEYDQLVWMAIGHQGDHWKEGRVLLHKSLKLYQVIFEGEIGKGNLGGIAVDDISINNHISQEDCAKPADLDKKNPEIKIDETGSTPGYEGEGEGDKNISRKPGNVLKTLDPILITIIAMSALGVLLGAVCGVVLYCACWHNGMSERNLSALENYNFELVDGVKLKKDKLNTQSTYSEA

SMILES	MC4R ag barr	ASAP1 GAP inh	MC4R antag cAMP	UUG fidelity	ARFGAP1 inhibitor	CendR NRP1 mod
C[C@@H]1CCCCO[C@@H](CN(C)C(=O)Nc2ccc3c(c2)OCO3)[C@H](C)CN([C@H](C)CO)C(=O)c2cc(NS(=O)(=O)c3cn(C)cn3)ccc2O1	-	-	-	0	-	-
CCOC(=O)C1=C(C)N2C(=C(C#N)[C@@H]1c1ccc(C(=O)OC)cc1)SC[C@@]2(O)C(C)(C)C	0	0	32.9	0	0	0
CCOC(=O)C1=C(C)N=C2SCCC(=O)N2C1c1ccc(C(=O)OC)cc1 (centres undefined)	0	0	0	0	0	0
O=C(Nc1ccccc1)Nc1ccc2c(c1)[C@H]1C[C@@H](CC(=O)N3CCOCC3)O[C@@H](CO)[C@H]1O2	-	-	-	0	-	-
Cc1ccc(-n2c(-c3ccco3)nc3c(cnn3-c3ccc(C)cc3)c2=O)cc1	0	0	0	0	0	35.3
N#CCCN(C(=O)Nc1ccc(Cl)cc1)c1ccccc1	0	0	0	0	0	0
N#CCCN(C(=O)Nc1ccccc1)c1ccccc1	0	0	0	0	0	28.0
Cc1noc(C)c1S(=O)(=O)N(C)C[C@H]1OCCCC[C@@H](C)Oc2ccc(NC(=O)Nc3cccc4ccccc34)cc2C(=O)N([C@@H](C)CO)C[C@@H]1C	-	-	-	0	-	-
Cc1cccc2cc(C#N)c(SCc3nnc(-c4ccccc4[N+](=O)[O-])o3)nc12	0	0	0	-	0	31.5
CC(=O)Nc1cccc(-c2csc(NCc3ccccc3)n2)c1	0	0	0	-	0	25.7
O=C1O[C@@H](c2ccccc2)[C@@H](c2ccccc2)N2[C@@H](c3ccc(O)cc3)[C@]3(C(=O)Nc4ccc(C#CC5=CCCCC5)cc43)[C@@H](C(=O)O)[C@H]12	-	-	-	0	-	-
O=C(N/N=C/C1C(c2ccccc2)C1(Cl)Cl)c1cccc(Cl)c1 (centres undefined)	0	0	0	0	0	24.6
O=C(C[C@@H]1C[C@H]2c3cc(NS(=O)(=O)c4ccc(F)cc4)ccc3O[C@H]2[C@H](CO)O1)N1CCCCC1	-	-	-	0	-	-
COc1ccc(Nc2nc(N)nc(CCl)n2)cc1	17.6	0	0	0	0	0
Nc1nc(CCl)nc(Nc2ccc3ccccc3c2)n1	14.9	0	0	-	0	0
Cc1ccccc1Nc1nc(N)nc(CCl)n1	0	0	0	0	0	0
O=C(Nc1cc(Cl)cc(Cl)c1)C(c1ccccc1)N1CCCCC1 (centres undefined)	0	0	0	-	0	0
O=C(O)c1ccccc1OC(C(=O)Nc1cc(Cl)cc(Cl)c1)c1ccccc1 (centres undefined)	9.3	0	0	0	0	0
C[C@@H]1CCCCO[C@H](CN(C)C(=O)Nc2ccc3c(c2)OCO3)[C@H](C)CN([C@@H](C)CO)C(=O)c2cc(NC(=O)Cc3ccccc3)ccc2O1	-	-	-	0	-	-
Cc1ccccc1S(=O)(=O)NCC[C@@H]1CC[C@@H](NC(=O)Nc2cccc(Cl)c2)[C@H](CO)O1	-	-	-	0	-	-
Cc1ccc(-c2nc3ccccc3s2)cc1NC(=O)c1ccc2c(c1)OCO2	0	0	38.0	0	0	0
C[C@@H]1CN([C@H](C)CO)C(=O)c2cc(C#CCN(C)C)cnc2O[C@H]1CN(C)S(C)(=O)=O	-	-	-	0	-	-
O=C(CSc1cccc2cccnc12)N/N=C/c1ccc(F)cc1	0	0	0	-	0	36.5
O=C(CSc1cccc2cccnc12)N/N=C/c1cccc(O)c1	0	0	0	-	0	0
CCCC(=O)Nc1ccc2c(c1)C(=O)N(C)C[C@H](OC)[C@H](C)CN(S(=O)(=O)c1cn(C)cn1)[C@@H](C)CO2	-	-	-	0	-	-
SMILES	MC4R ag barr	ASAP1 GAP inh	MC4R antag cAMP	UUG fidelity	ARFGAP1 inhibitor	CendR NRP1 mod
CC(C)CN(C(=O)COC(=O)CNC(=O)c1ccc(Cl)cc1)C1CCS(=O)(=O)C1 (centres undefined)	0	0	0	-	0	0
CCN(C(=O)COC(=O)CNC(=O)c1ccc(F)cc1)C1CCS(=O)(=O)C1 (centres undefined)	0	0	0	-	0	28.0
O=C(OCn1ncc(Cl)c(Cl)c1=O)c1ccc(C(F)(F)F)cc1	0	0	32.6	0	0	0
CN1c2ccccc2C(C)(C)C12CC(c1cccc(S(=O)(=O)N3CCCC3)c1)=NO2 (centres undefined)	0	0	0	-	0	0
CN1c2ccccc2C(C)(C)C12CC(c1ccc(S(=O)(=O)N3CCCCC3)cc1)=NO2 (centres undefined)	0	0	0	-	0	19.3
O=C1[C@H]2[C@H](C=CC[C@H]2C(=O)N2CCN(c3ccccc3)CC2)CCN1Cc1ccccc1	0	0	0	0	0	27.7
O=C([C@@H]1CC=C[C@@H]2CCN(C3CC3)C(=O)[C@@H]21)N1CCN(c2ccccc2)CC1	0	0	0	0	0	0
C[C@@H]1CCCCO[C@@H](CN(C)C(=O)Nc2ccc(F)cc2)[C@H](C)CN([C@H](C)CO)C(=O)c2cc(NS(C)(=O)=O)ccc2O1	-	-	-	0	-	-
O=C(C[C@@H]1C[C@@H]2c3cc(NC(=O)Nc4ccccc4)ccc3O[C@@H]2[C@@H](CO)O1)NCC1CC1	-	-	-	0	-	-
OCC[C@@H]1C[C@H](O)[C@@H](O)[C@@]2(CCCCO2)O1	0	0	0	0	0	27.2
CCN1/C(=C/C=C/C=C/C=C/c2sc3ccccc3[n+]2CC)Sc2ccccc21	0	0	0	0	32.1	0
CCN1/C(=C/C=C/c2sc3ccccc3[n+]2CC)Sc2ccccc21	0	-	0	0	-	0
C[C@@H]1CN([C@H](C)CO)C(=O)c2cc(NS(C)(=O)=O)ccc2O[C@@H]1CN(C)Cc1ccccc1	-	-	-	0	-	-
CC(C)(C)NC(=O)C12CC3CC(CC(Cl)(C3)C1)C2	0	0	0	-	0	22.3
O=C(C[C@H]1C[C@H]2c3cc(NC(=O)c4ccc5c(c4)OCO5)ccc3O[C@H]2[C@H](CO)O1)NCC1CC1	-	-	-	0	-	-
CC(C)NC(=O)N[C@H]1C=C[C@H](CC(=O)NCCCN(C)C)O[C@H]1CO	-	-	-	0	-	-
O=C(O)/C=C/C(=O)Nc1ccc(OCc2ccccc2)cc1	0	0	0	-	0	22.1
Cc1ccc(C(=O)Nc2ccc(OCc3ccccc3)cc2)cc1[N+](=O)[O-]	9.5	0	0	0	0	0
COc1ccc(NC(=O)Nc2ccc3c(c2)CC(=O)N([C@H](C)CO)C[C@@H](C)[C@H](CN(C)C(=O)Nc2ccc4c(c2)OCO4)O3)cc1	-	-	-	0	-	-

Bioassay records as filed in PubChem BioAssay.
